# Apparent affinities of Ab-91 variants for a coronavirus HR2 peptide

From the AlphaSeq antibody data of Engelhart et al. 2022 (doi:10.1038/s41597-022-01779-4), copy in the FLAb collection.

The target is the same throughout: PDVDLGDISGINAS, from the HR2 region of SARS-CoV-2 spike.

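The library (AAYL51) carries one to three amino acid substitutions per variant, with no insertions or deletions. In AlphaSeq, yeast of one mating type display the scFv and yeast of the other type display the target. Binding brings cells together so that they mate, and sequencing counts the barcode pairs among the diploids. Scores were corrected for input abundance and mapped to Kd with protein pairs of known affinity run in the same pool. There are three technical replicates.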

Each scFv is VL, a (GGGGS)3 linker, VH, as in the parent Ab-91, and differs from it in the CDRs of the heavy chain only.
VL: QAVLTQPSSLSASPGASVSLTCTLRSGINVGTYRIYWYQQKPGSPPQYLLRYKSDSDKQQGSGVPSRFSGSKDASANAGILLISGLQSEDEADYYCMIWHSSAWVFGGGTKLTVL
VH: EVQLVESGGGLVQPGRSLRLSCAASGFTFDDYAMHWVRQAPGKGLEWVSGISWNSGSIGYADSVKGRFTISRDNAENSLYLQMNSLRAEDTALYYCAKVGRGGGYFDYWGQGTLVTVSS

Variants are written as CDR1, CDR2 and CDR3 of the heavy chain (limits as in the source). Parent: GFTFDDYAMH, GISWNSGSIGYADSVK, VGRGGGYFDY.
Every variant below is changed at I58 of the VH (sequential numbering).
Affinities are written as log10 Kd with Kd in nM; a lower number is a better binder.
Averages over replicates are reported, and they cover detected replicates only.
An entry "ND" has no value in the source: the pair was not observed among the diploids in that replicate. This suggests poor binding but is not conclusive.
Background: pairings of library AAYL51 with three empty control strains gave a value in 21% of cases (median 4.54, 5th percentile 3.26). Values in that range, when seen in few replicates, are hard to tell from nonspecific mating. Also given: how often the same scFv was detected with the empty control strains.

Variant GFTFDDYAMH / GISWMSGSCGYADSVK / VGRGGGYFDY showed 3.42, 4.24, 3.85 (mean 3.84; controls 2 of 9). Variant GFTFDDYAMH / GISWNSGSEGYADSVK / VGRGQGYFDN gave 0.99, 1.19, 0.77 (mean 0.98; controls 0 of 9). Variant GFTFDDYAMH / QISWNSGSRGYADSVK / VGRGRGYFDY showed ND, 5.58, ND (controls 2 of 9). Variant GFTFDDYAMH / GISWNSGSTGYADSVK / VGRGGGYFDY showed 0.73, 1.04, 0.16 (mean 0.64; controls 3 of 9). Variant GFTFDDYAMH / CISWNPGSWGYADSVK / VGRGGGYFDY gave 4.94, 5.12, ND (mean 5.03; controls 4 of 9). With GFTFDDYTMH / GIRWNSGSCGYADSVK / VGRGGGYFDY the result was ND, 4.05, ND (controls 2 of 9). For GFTFDDYAMH / GISWNSGSRGYADSVK / VGRGGGYFDY, the assay gave ND, ND, ND (controls 0 of 9).

For GFTFDDWAMH / IISWNSGSHGYADSVK / VGRGGGYFDY, the assay gave ND, 3.85, ND (controls 1 of 9). Variant GQTFDDYWMH / GISWNSGSWGYADSVK / VGRGGGYFDY gave ND, ND, ND (controls 1 of 9). Variant GFTFDDYAMH / GKSWNSKSTGYADSVK / VGRGGGYFDY showed ND, ND, ND (controls 0 of 9). For GFTFDDYAMH / GISWNSGSQGAADSVA / VGRGGGYFDY, the assay gave ND, 5.35, ND (controls 3 of 9). With GFTFDDYAMH / GISWDSGSWGYYDSVK / VGRGGGYFDY the result was ND, ND, ND (controls 0 of 9). Variant GFTFDDYAMH / GIAWNSGSRGYADSVK / VGYGGGYFDY gave 1.33, 1.54, 1.16 (mean 1.34; controls 5 of 9). For GFTFDDYAMH / GISWNSGSRGYADSVK / VGDGGGYVDY, the assay gave 3.11, ND, ND (controls 1 of 9).

For GFTFDDYAMH / GISWNSGSEGYADDVK / VGRGGGYADY, the assay gave ND, ND, 4.71 (controls 5 of 9). Variant QFTFDDYAMN / GISWNSGSYGYADSVK / VGRGGGYFDY showed ND, ND, ND (controls 3 of 9). For GFTFDDYAMH / GISWNSGCVGYADSVK / VGRGKGYFDY, the assay gave ND, ND, ND (controls 0 of 9). Variant GFTFDGYAMH / GLSWNSGSYGYADSVK / VGRGGGYFDY showed 4.25, 4.79, 4.19 (mean 4.41; controls 3 of 9). Variant GFTFDDYAMH / GISWNSGSHGYACSVK / VGYGGGYFDY showed 2.25, 2.36, 1.90 (mean 2.17; controls 1 of 9). Variant GQTFDDYAMH / GMSWNSGSKGYADSVK / VGRGGGYFDY showed ND, ND, ND (controls 0 of 9). Variant GFTFDDYAMH / GISWNSGATGYADSVK / VGQGGGYFDY showed 0.95, 0.96, 0.31 (mean 0.74; controls 4 of 9).

Variant GFTFDDYAMH / QITWNSGSLGYADSVK / VGRGGGYFDY gave ND, 3.19, ND (controls 2 of 9). For GFTFDDYAMH / GISWNSGSGGYADSVK / VGRGGGYFDY, the assay gave 4.64, 5.10, 4.36 (mean 4.70; controls 3 of 9). Variant GFTFDDYAMH / GISWNSGSQGYADVVK / VGRGYGYFDY showed ND, ND, ND (controls 0 of 9). Variant GFTFDDYAMH / GISWNSYSKGYADSVK / VGRGGGYFTY showed 2.78, 2.67, 2.43 (mean 2.62; controls 5 of 9). Variant GFTFDDWAMH / GISWNSGSNGYADSVK / AGRGGGYFDY gave 4.09, ND, ND (controls 1 of 9). For GFTFDDYAMH / GISWNSGSSGYADSVK / VGRRGPYFDY, the assay gave 1.16, 1.13, 0.65 (mean 0.98; controls 2 of 9). For GFQFDDYAMH / DISWNSGSTGYADSVK / VGRGGGYFDY, the assay gave 5.00, ND, ND (controls 1 of 9).

For GFTFDDYAMH / RISWNSGSRGYADSVK / VGRGGGYFDY, the assay gave ND, ND, ND (controls 4 of 9). With NFTFDDYAMH / GISWNSGSPGYADSVK / VGRGGGYFDV the result was 4.67, 4.72, ND (mean 4.70; controls 2 of 9). For GFTFDDYAMH / GISWNSGSMGYADSVK / VGRGPFYFDY, the assay gave 3.92, 4.45, ND (mean 4.19; controls 1 of 9). Variant GFTFDDYAMH / GISWNSGSVGYNDSVK / VGRGGGYCDY gave 2.05, 2.15, 1.85 (mean 2.02; controls 7 of 9). Variant GFTFGDYAMH / GISWNSGSKGYADSVK / VGRGGGYYDY gave 3.27, 3.12, 3.39 (mean 3.26; controls 3 of 9). Variant GFTFDDYAGH / GISWNSDSLGYADSVK / VGRGGGYFDY gave 1.61, 1.78, 0.68 (mean 1.36; controls 0 of 9). Variant GFTFDDYAMH / GISWNSGSRGAADPVK / VGRGGGYFDY showed ND, ND, ND (controls 0 of 9).

Variant YFTFDDIAMH / GISWNSGSRGYADSVK / VGRGGGYFDY gave ND, 4.26, 4.54 (mean 4.40; controls 3 of 9).

Again, the first 4 entries without any signal:

For GFTFDDYAMH / GISWNSGSRGYADSVK / VGRGGGYFDY, the assay gave ND, ND, ND (controls 0 of 9).
For GQTFDDYWMH / GISWNSGSWGYADSVK / VGRGGGYFDY, the assay gave ND, ND, ND (controls 1 of 9).
For GFTFDDYAMH / GKSWNSKSTGYADSVK / VGRGGGYFDY, the assay gave ND, ND, ND (controls 0 of 9).
For GFTFDDYAMH / GISWDSGSWGYYDSVK / VGRGGGYFDY, the assay gave ND, ND, ND (controls 0 of 9).